For the series, the system named is HepG2 cells. The series can be described thus: Cytotoxicity in HepG2 cells via CCK-8 assay. The series is classed as cell-based. The procedure: HepG2 cells were maintained in Dulbecco’s Modified Eagle Medium (DMEM) supplemented with 10% fetal bovine serum and 1% penicillin–streptomycin under controlled conditions at 37 °C in a humidified atmosphere containing 5% CO2 for 24 h. To induce insulin resistance, cells were treated with insulin at concentrations of 0, 10^−4, 10^−5, 10^−6, 10^−7, 10^−8, and 10^−9 μmol/L for varying exposure periods (12, 24, 36, or 48 h), followed by a post-treatment incubation phase of equal length under standard culture conditions, according to the protocol described by. Cell viability was assessed using the Cell Counting Kit 8 (CCK-8) assay. Glucose consumption was measured via a glucose detection kit. […] The IR-HepG2 cellular model was established as described in Section 3.6. The experimental design included the following groups: a normal (untreated) control group, an insulin resistance (IR)-induced model group, a positive control group treated with metformin, and peptide intervention groups treated with peptide solution. Cell viability was evaluated in all groups to determine appropriate peptide concentrations and incubation times based on the criteria of non-cytotoxicity and maximal glucose consumption.

Where the note is “10^−4 mol/L insulin, CCK-8”, insulin gave a HepG2 cell viability of 38.45%. Under “insulin 10^−5 to 10^−9 mol/L, HepG2, CCK-8”, the “cytotoxicity (in words)” value is given as “did not induce cytotoxicity”.
